From PubChem BioAssay AID1477 (National Center for Advancing Translational Sciences (NCATS), 2009)
Only a part is listed here, and it is no random draw. Some tests of the compounds listed are not included; inactive here does not mean inactive elsewhere. Inconclusive results are not listed. Activity calls are given as the source filed them. Calls follow the shape of the dose curve; as a rule, active = well fitted curve in the direction sought with a large enough effect; inconclusive = small, poorly fitted or top-dose-only effect, or effect the other way, or another doubt; inactive = no such curve, though single readings can be large or run the other way.

The chains behind the UniProt entries cited, without tags or fusion partners.
UniProt Q01196, whole entry partner: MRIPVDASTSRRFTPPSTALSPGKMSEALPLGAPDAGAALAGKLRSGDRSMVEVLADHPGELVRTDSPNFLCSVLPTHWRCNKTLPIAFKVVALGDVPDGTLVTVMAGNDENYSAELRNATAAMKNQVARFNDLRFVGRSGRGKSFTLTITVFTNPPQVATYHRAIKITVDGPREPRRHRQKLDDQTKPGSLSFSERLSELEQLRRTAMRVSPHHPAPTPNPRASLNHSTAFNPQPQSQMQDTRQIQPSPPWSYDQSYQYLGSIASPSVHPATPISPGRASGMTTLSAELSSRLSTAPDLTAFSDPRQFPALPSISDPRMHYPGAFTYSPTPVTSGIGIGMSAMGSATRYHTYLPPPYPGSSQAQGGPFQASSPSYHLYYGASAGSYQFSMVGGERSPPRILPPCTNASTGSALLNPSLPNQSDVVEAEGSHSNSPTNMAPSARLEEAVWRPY
UniProt Q13951, whole entry: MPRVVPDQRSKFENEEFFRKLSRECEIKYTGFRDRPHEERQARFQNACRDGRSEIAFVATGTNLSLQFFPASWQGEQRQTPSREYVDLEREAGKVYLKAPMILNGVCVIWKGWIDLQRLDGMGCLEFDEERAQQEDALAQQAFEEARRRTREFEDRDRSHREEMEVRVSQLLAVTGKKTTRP

biological target: Runt-related transcription factor 1 (Homo sapiens) + Core-binding factor subunit beta (Homo sapiens) (UniProt Q01196+Q13951); test: qHTS Assay for Compounds Blocking the Interaction Between CBF-beta and RUNX1 for the Treatment of Acute Myeloid Leukemia; conditions: AlphaScreen CBFb-His/RUNX1-biotin binding, biochemical; at 59.8 µM (top of the series); also: % of control where 0% means no effect

Row | Compound | activity, negative = inhibition
1 | COc1ccc(Br)c(C(=O)NCC2(N3CCCCC3)CCCCC2)c1 | inactive: 1.08%
2 | CN(C)c1cccc(C(=O)NCC2(N(C)C)CCCCC2)c1 | inactive: -16.4%
3 | O=C(OC1CN2CCC1CC2)C(CO)(c1ccccc1)c1ccccc1 (stereo unspecified) | inactive: 6.85%
4 | COc1cccc(C(=O)NCC2(N3CCCCC3)CCCCC2)c1 | inactive: -2.27%
5 | C=CCN1CCN(CCOC(=O)C(O)(c2ccccc2)c2ccccc2)CC1 | inactive: -5.62%
6 | CCN1CCCC(OC(=O)C2(O)c3ccccc3C=Cc3ccccc32)C1 (stereo unspecified) | inactive: 0.724%
7 | CN(C)C1CCCC1OC(=O)C(O)(c1ccccc1)c1ccccc1 (stereo unspecified) | inactive: -0.283%
8 | Cc1ccccc1C(=O)NCC1(N2CCCCC2)CCCCC1 | inactive: 10.8%
9 | CCN(CC)CC(C)C(C)OC(=O)C(O)(c1ccccc1)c1ccccc1 (stereo unspecified) | inactive: 8.92%
10 | CC(C)N1C(=O)CC2(CCN(CCOC(=O)C(O)(c3ccccc3)c3ccccc3)CC2)C1=O | inactive: 3.87%
11 | O=C(NCC1(N2CCCCC2)CCCCC1)c1cc([N+](=O)[O-])ccc1Cl | inactive: 2.58%
